Earlier results, collected in article PMC9871032 (2023).
pKd: −log10 of the molar value.

Protein sequences, listed by entry. Tags and fused reporters are not part of them. Residues count along the entry.
UniProt P01589, 22-240, chain 1 of 3: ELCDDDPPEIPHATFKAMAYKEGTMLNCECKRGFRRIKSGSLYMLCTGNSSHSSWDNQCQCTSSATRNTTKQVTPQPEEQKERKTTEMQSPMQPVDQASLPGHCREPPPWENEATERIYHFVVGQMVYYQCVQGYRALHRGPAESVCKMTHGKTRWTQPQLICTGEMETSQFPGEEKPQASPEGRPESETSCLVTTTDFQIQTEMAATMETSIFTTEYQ

Biological target: trimeric IL-2 receptor (Homo sapiens) (UniProt P01589)
Settings: cited from earlier work

With IL-2 (from UniProt P60568) as the substance, how does the pKd read?
Its pKd is 11.00.
